# Experimental logP (octanol/water) values from OPERA 2.9

Source: data files of OPERA 2.9 (Mansouri et al.), github.com/kmansouri/OPERA.

The octanol-water partition coefficient is given as log10; larger values mean a more lipophilic compound.
"n/a" marks a cell with nothing listed here.
"via" names the databases from which the curators took the value.

SMILES,name,logP,via
CCCCC(CC)COC(=O)CCc1cc(C(C)(C)C)c(O)c(C(C)(C)C)c1 (stereo not given),"2-Ethylhexyl 3-(3,5-di-tert-butyl-4-hydroxyphenyl)propionate",7.5,eChemPortal
CCCCCCC(O)CCCCCCCCCCC(=O)OCC(CC)CCCC (stereo not given),"Octadecanoic acid, 12-hydroxy-, 2-ethylhexyl ester",9.776,eChemPortal
CC(C)(N)CO.Cc1ccc(S(=O)(=O)O)cc1,"(2-Hydroxy-1,1-dimethylethyl)ammonium toluene-4-sulphonate",0.524,eChemPortal
C=CC(=O)NC(C)(C)CS(=O)(=O)[O-].[NH4+],n/a,-3.105,"OFMPub, eChemPortal"
CCCCn1c(N2CCN(c3ccccc3)CC2)c(C=C2SC(=S)N(Cc3ccccc3Cl)C2=O)c(C)c(C#N)c1=O,n/a,0.72,OCHEM
S=C(SCc1ccccc1)SCc1ccccc1,"Carbonotrithioic acid, bis(phenylmethyl) ester",6.025,eChemPortal
CC(=O)OCC(=O)[C@H]1[C@H](C)C[C@H]2[C@@H]3CC=C4C[C@@H](O)CC[C@]4(C)[C@H]3CC[C@@]21C,3-Hydroxy-16-methyl-20-oxopregn-5-en-21-yl acetate,4.14,eChemPortal
FC(F)OC(F)C(F)(F)F (stereo not given),Desflurane,1.9,PubChem
CN(C)CCN1CCN(C)CC1,"1-Piperazineethanamine, N,N,4-trimethyl-",-0.351,eChemPortal
CCCCCCC(C=O)=Cc1ccccc1,2-(Phenylmethylene)octanal,5.1,OCHEM
CN(C)C(=O)c1cc2cnc(Nc3ccc(N4CCNCC4)cn3)nc2n1C1CCCC1,Ribociclib,0.6,eChemPortal
CCCCCCCCCCCCCCCCCCNC(=O)/C=C\C(=O)O,"2-Butenoic acid, 4-(octadecylamino)-4-oxo-, (2Z)-",2.53,eChemPortal
CC(=O)N[C@@H](CS)C(=O)O,N-Acetyl-L-cysteine,-0.6,eChemPortal
Cc1ccc(C)c(C(C)c2ccccc2)c1 (stereo not given),2-(1-Phenylethyl)-p-xylene,5.39,OCHEM
OCCN1C[C@H](O)[C@@H](O)[C@H](O)[C@H]1CO,Miglitol,-2.7,PubChem
CCCCCCCCCCCCCCCCOC(=O)Oc1c(Cl)cc(C(=O)OCC)cc1Cl,n/a,9.29,eChemPortal
NCCNCCN,Diethylenetriamine,-1.3,PubChem
CC1=CC(=O)CC(C)(C)C1=O,"2,6,6-Trimethyl-2-cyclohexene-1,4-dione",1.12,eChemPortal
CC(C)(C=NCC1(C)CC(N=CC(C)(C)CN2CCOCC2)CC(C)(C)C1)CN1CCOCC1 (stereo not given),n/a,2.1,eChemPortal
Cc1cnc(C(=O)NCCc2ccc(S(N)(=O)=O)cc2)cn1,n/a,0.2,eChemPortal
CC1(C2CCC3C4=CC=C5CC6(CCC5(C)C4CCC32C)OCCO6)OCCO1 (stereo not given),n/a,6.7,eChemPortal
COc1ccc(-c2coc3cc(O)ccc3c2=O)cc1,Formononetin,1.7,eChemPortal
COCCOCCCn1c(=O)c2c(N)c3c(=O)c4ccccc4c(=O)c3c(N)c2c1=O,n/a,4.44,eChemPortal
CC1(C)CC(N(N=O)C(O)=NC2C(O)OC(CO)C(O)C2O)CC(C)(C)[N+]1=O (stereo not given),n/a,1.87,OCHEM
NC(CO)(CO)CO,Tromethamine,0.005,eChemPortal
COC(=O)CN(CC(=O)OC)c1cc(NC(C)=O)c(/N=N/c2c(Br)cc([N+](=O)[O-])cc2[N+](=O)[O-])cc1OC,n/a,4.5,eChemPortal
O=c1c2ccccc2[nH]c2cc3c(=O)c4c(Cl)c(Cl)ccc4[nH]c3cc12,"1,2-Dichloro-5,12-dihydroquinolino[2,3-b]acridine-7,14-dione",1.56,eChemPortal
C=CC(C)(CCC=C(C)C)OC(=O)N(C)C (stereo not given),n/a,4.3,eChemPortal
C[C@]12CC[C@H]3[C@@H]([C@H]4C[C@H]4[C@]4(O)C[C@@H](O)CC[C@]34C)[C@@H]1[C@@H]1C[C@@H]1[C@@]2(O)C#CCO,n/a,1.12,eChemPortal
COC(=O)CCCCCCCCC(=O)OC,Dimethyl decanedioate,3.38,eChemPortal
C=CC(F)(F)C(F)(F)F,"3,3,4,4,4-Pentafluorobut-1-ene",3.06,eChemPortal
C=Cn1cc[n+](C)c1.[Cl-],1-Ethenyl-3-methyl-1H-imidazol-3-ium chloride,-3.51,eChemPortal
CC(=O)CCC=C(C)C,6-Methyl-5-hepten-2-one,2.07,"OCHEM, eChemPortal"
O=S(=O)([O-])CCCS.[Na+],"1-Propanesulfonic acid, 3-mercapto-, monosodium salt",-2.94,eChemPortal
NC(=O)c1ccc(N=C(O)c2ccc(N)cc2)cc1,4-Amino-N-(4-carbamoylphenyl)benzene-1-carboximidic acid,0.64,eChemPortal
O=C(O)CCNC(=O)c1ccc(/N=N/c2ccc(O)c(C(=O)O)c2)cc1,Balsalazide,1,eChemPortal
CC(C)(C)N(Sc1nc2ccccc2s1)Sc1nc2ccccc2s1,n/a,6.7,eChemPortal
CC(C)COC(=O)c1ccc(O)cc1,Isobutylparaben,3.43,eChemPortal
CCCCN(CCCC)C(=O)c1ccc(C2=C3C(=O)NC(c4ccc(Cl)cc4)=C3C(=O)N2)cc1,n/a,4,eChemPortal
CC1(C)CC(=O)CC(C)(C#N)C1 (stereo not given),"5-Oxo-1,3,3-trimethylcyclohexanecarbonitrile",1.7,eChemPortal
CCCCCCCOC(=O)CCCCCCC,Heptyl octanoate,6.11,OCHEM
CC(=O)OCC1=C(C(=O)O)N2C(=O)[C@@H](NC(=O)[C@H](N)c3ccccc3)[C@H]2SC1,Cephaloglycin,-0.3,PubChem
C=CCc1ccc(OC(C)=O)c(OC)c1,(2-Methoxy-4-prop-2-enylphenyl) acetate,2.8,eChemPortal
CN(C)CCOc1ccc(/C(=C(/CCCl)c2ccccc2)c2ccccc2)cc1,Toremifene,6.8,PubChem
CCCCCCCC(=O)OCCCOC(=O)CCCCCCC,"1,3-Propanediol dicaprylate",7.6,eChemPortal
CC(=O)[C-](/N=N/c1cc([N+](=O)[O-])cc(S(=O)(=O)[O-])c1[O-])C(=O)Nc1ccccc1.CC(=O)[C-](/N=N/c1cc([N+](=O)[O-])cc(S(=O)(=O)[O-])c1[O-])C(=O)Nc1ccccc1.[Co+3].[Na+].[Na+].[Na+],n/a,-1.95,eChemPortal
S=C(S)NCCNC(=S)S,Ethylenebis[dithiocarbamic acid],-2.7,PubChem

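These are experimental values that the OPERA curators gathered from public databases to train and test their QSAR models. One number stands for a compound and property, with no spread given. Conditions of the individual experiments are not part of the data. A value may pool stereoisomers or salt forms, and the file does not say which form was measured. Some entries may be limits or estimates that an upstream database listed as plain numbers.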